## Ab-14 heavy chain CDR variants: yeast mating affinities

The measurements come from Li et al. 2023 (doi:10.1038/s41467-023-39022-2) through the FLAb antibody collection.

The target is the same throughout: PDVDLGDISGINAS, from the HR2 region of SARS-CoV-2 spike.

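The starting antibody came from a phage panning campaign against this peptide. This is the validation round: designs drawn from the data on random variants, tested in the same kind of assay. Their group label is 14H_En_HC (En: ensemble of fine-tuned language models; HC: hill climbing; a sequence that several methods proposed may carry one label only). The assay is AlphaSeq: two haploid yeast populations carry antibody and antigen on their surface. Binding brings cells together so that they mate, and sequencing counts the barcode pairs among the diploids. A regression on co-assayed BCL2-family reference pairs converts the normalised counts of each replicate to an apparent Kd. There are six technical replicates.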

Ab-14 is the parent antibody, in scFv form: VH, then the linker GGGGSGGGGSGGGGS, then VL. The light chain is unchanged in all variants.
VH: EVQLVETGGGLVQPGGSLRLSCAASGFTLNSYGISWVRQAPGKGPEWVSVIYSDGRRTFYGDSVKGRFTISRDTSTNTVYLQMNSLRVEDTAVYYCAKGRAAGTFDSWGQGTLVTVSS
VL: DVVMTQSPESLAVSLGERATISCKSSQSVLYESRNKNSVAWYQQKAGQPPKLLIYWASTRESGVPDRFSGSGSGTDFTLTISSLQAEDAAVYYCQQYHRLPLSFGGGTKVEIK

Each variant is given by its three heavy chain CDRs, as the data file delimits them; those of the parent are GFTLNSYGIS, VIYSDGRRTFYGDSVK, GRAAGTFDS.
Affinities are written as log10 Kd with Kd in nM; a lower number is a better binder.
A pair that was not seen in that replicate is written "nd"; this usually means weak binding, but a binder can also be missed.

With GFDLNEYGIS | VIYADGERTFYTDSVK | GEVAGTFDS the result was 0.27, 0.22, 0.32, 0.11, 0.07, 0.06 (controls 0 of 18).
With GFSLDEYGIS | VIYADGRRTFYQDDVK | GNVAGTFDQ the result was -0.75, -0.74, -0.35, -0.64, -1.03, -0.59 (controls 0 of 18).
With GFDLNEYGIS | VIYADGRRTFYADSVK | GTNGGTFDM the result was -0.32, -0.58, -0.05, -0.23, -0.07, -0.32 (controls 0 of 18).
With GFDLNEYGIS | VIYADGMRTFYSDSVK | GEVAGTFVS the result was 0.50, 0.25, 0.01, -0.19, 0.18, 0.51 (controls 0 of 18).
With GFDLDEYGIS | VIYADGRRTFYSDSVK | GSQAGTFDV the result was -0.18, -0.36, -0.21, -0.32, -0.42, -0.42 (controls 1 of 18).
With GFDLNEYGIS | VIYADGRRTFYADSVK | GNQAGTFDS the result was 0.16, -0.11, -0.13, 0.01, -0.24, -0.02 (controls 1 of 18).
With GFDLNEYGIS | VIYADGKRTFYADSVK | GQAAGTFDE the result was -0.19, -0.48, -0.81, -0.67, -0.50, -0.41 (controls 0 of 18).
With GFDLNEYGIS | VIYADGRRTAYLDSVK | GTNAGTFDQ the result was -0.36, -0.48, -0.67, -0.45, -0.60, -0.30 (controls 0 of 18).
With GFDLNEYGIS | VIYADGRRTFYSDSVK | GQNAGTFDI the result was 0.00, -0.26, -0.16, -0.02, -0.24, -0.08 (controls 0 of 18).
With GFDLNEYGIS | VIYADGRRTFYKDSVK | GQNGGTFDV the result was -0.60, -0.02, -0.26, -0.95, -0.79, -0.66 (controls 0 of 18).
With GFNLNEYGIS | VIYADGRRTAYADSVK | GEIAGTFDV the result was -1.55, -1.23, -1.05, -1.30, -1.45, -1.72 (controls 0 of 18).
With GFDLNEYGIS | VIYADGRRTQYVDSVK | GNQAGTFDS the result was 0.16, 0.51, 0.96, 0.41, -0.26, -0.42 (controls 0 of 18).
With GFDLNEYGIS | VIYADGRRTFYTDSVK | GEMAGTFDS the result was -0.24, -0.58, -0.46, -0.32, -0.65, -0.15 (controls 0 of 18).
With GFDLEEYGIS | VIYADGRRTFYSDSVK | GEHAGTFDT the result was -0.24, -0.64, -0.56, -0.40, -0.22, -0.14 (controls 0 of 18).
With GFDLNEYGIS | VIYADGRRTQYIDSVK | GNVAGTFDT the result was -0.81, 0.44, -0.13, -0.25, 0.70, -0.64 (controls 0 of 18).
With GFDLNEYGIS | VIYADGSRTAYSDSVK | GQTAGTFDA the result was -0.78, -0.75, -0.78, -0.73, -0.70, -0.44 (controls 0 of 18).
With GFDLNEYGIS | VIYADGRRTAYSDSVK | GEQAGTFDF the result was -0.32, -0.68, -0.48, -0.73, -0.57, -0.39 (controls 0 of 18).
With GFDLEEYGIS | VIYADGRRTAYSDSVK | GEAAGTFDV the result was 0.68, 0.50, 0.01, 0.31, 0.06, 0.03 (controls 1 of 18).
With GFDLNEYGIS | VIYADGQRTAYADSVK | GKVAGTFDA the result was -0.24, -0.62, -0.36, -0.70, -0.44, -0.53 (controls 0 of 18).
With GFDLNEYGIS | VIYADGRRTFYIDSVK | GETAGTFDQ the result was -1.09, -1.08, -0.14, -0.62, -1.26, -0.95 (controls 0 of 18).
With GFDLNEYGIS | VIYADGRRTFYSDSVK | GENAGTFIQ the result was nd, nd, nd, nd, 0.88, nd (controls 0 of 18).
With GFDLDEYGIS | VIYADGRRTAYADSVK | GTLAGTFDA the result was -0.52, -1.03, -0.39, -1.06, -0.43, -0.34 (controls 0 of 18).
With GFDLNEYGIS | VIYADGRRTFYTDNVK | GQNAGTFDK the result was -0.54, -0.20, -0.70, -0.17, -0.81, 0.45 (controls 0 of 18).
With GFDLNEYGIS | VIYADGRRTAYVDSVK | GQVAGTFDS the result was -0.59, -0.63, -0.60, -0.93, -0.60, -0.48 (controls 0 of 18).
With GFDLNEYGIS | VIYADGKRTFYADKVK | GNVAGTFDI the result was -0.29, -0.70, -0.88, -0.80, -0.54, -0.85 (controls 0 of 18).
With GFDLNEYGIS | VIYADGRRTFYADSVK | GTVAGTFDQ the result was -0.18, -0.60, -0.59, -0.57, -0.61, -0.48 (controls 0 of 18).
With GFDLNEYGIS | VIYADGVRTFYADSVK | GQLAGTFSV the result was -0.37, 0.30, -0.74, -0.21, -0.46, -0.56 (controls 0 of 18).
With GFDLNEYGIS | VIYADGRRTFYADSVK | GNQAGTFIM the result was 2.04, 1.83, 0.88, 0.92, 1.16, 1.93 (controls 0 of 18).
With GFDLNEYGIS | VIYADGMRTAYIDSVK | GEQAGTFDI the result was -0.06, 0.08, -0.37, -0.73, 0.02, -0.22 (controls 0 of 18).
With GFNLNEYGIS | VIYADGRRTAYSDSVK | GEVAGTFDV the result was nd, 0.58, 0.86, 0.64, 0.75, 2.21 (controls 0 of 18).
With GFDINEYGIS | VIYADGRRTFYADSVK | GQTAGTFDA the result was -0.22, -0.45, -0.39, -0.60, -0.61, -0.27 (controls 0 of 18).
With GFDLNEYGIS | VIYADGMRTQYIDSVK | GNTAGTFDV the result was 0.11, nd, 0.93, -0.65, -0.44, -0.47 (controls 0 of 18).
With GFDLNEYGIS | VIYADGRRTFYSDSVK | GETAGFFDQ the result was 1.34, 1.74, 0.64, 1.01, 0.48, 0.81 (controls 0 of 18).
With GFDLDEYGIS | VIYADGRRTFYSDSVK | GTTAGTFDV the result was -1.01, -1.27, -1.35, -1.41, -1.44, -1.87 (controls 0 of 18).
With GFDLNEYGIS | VIYADGRRTSYSDSVK | GEAAGTFNV the result was -1.02, -0.32, -0.40, -0.94, -0.53, -0.40 (controls 0 of 18).
With GFDLNEYGIS | VIYADGRRTFYSDSVK | GTNAGTFDM the result was 0.05, 0.15, -0.12, -0.10, 0.29, 0.34 (controls 0 of 18).
With GFDLNEYGIS | VIYADGQRTFYSDSVK | GQSAGTFDA the result was 0.65, 0.00, 0.56, 0.33, 0.24, 0.52 (controls 1 of 18).
With GFDLNEYGIS | VIYADGMRTQYIDSVK | GNAAGTFDK the result was 0.08, 0.14, 0.37, 0.14, 0.16, 0.41 (controls 0 of 18).
With GFDLNEYGIS | VIYADGMRTQYIDSVK | GENAGTFDL the result was 0.29, 0.27, -0.26, -0.10, 0.38, 0.29 (controls 1 of 18).
With GFDLNEYGIS | VIYADGVRTFYVDSVK | GETAGTFDV the result was 0.77, -0.08, 0.40, 0.05, 0.18, 0.49 (controls 2 of 18).
With GFDLNEYGIS | VIYADGMRTFYADSVK | GQVAGTFSV the result was -0.76, -0.79, -0.87, -0.70, -0.56, -0.71 (controls 0 of 18).
With GFDLNEYGIS | VIYADGVRTFYIDSVK | GEIAGTFDV the result was -0.21, -0.16, -0.29, -0.33, -0.44, -0.17 (controls 1 of 18).

The closing 7 entries, repeated:

The variant GFDLNEYGIS | VIYADGRRTFYSDSVK | GTNAGTFDM showed 0.05, 0.15, -0.12, -0.10, 0.29, 0.34 (controls 0 of 18).
The variant GFDLNEYGIS | VIYADGQRTFYSDSVK | GQSAGTFDA showed 0.65, 0.00, 0.56, 0.33, 0.24, 0.52 (controls 1 of 18).
The variant GFDLNEYGIS | VIYADGMRTQYIDSVK | GNAAGTFDK showed 0.08, 0.14, 0.37, 0.14, 0.16, 0.41 (controls 0 of 18).
The variant GFDLNEYGIS | VIYADGMRTQYIDSVK | GENAGTFDL showed 0.29, 0.27, -0.26, -0.10, 0.38, 0.29 (controls 1 of 18).
The variant GFDLNEYGIS | VIYADGVRTFYVDSVK | GETAGTFDV showed 0.77, -0.08, 0.40, 0.05, 0.18, 0.49 (controls 2 of 18).
The variant GFDLNEYGIS | VIYADGMRTFYADSVK | GQVAGTFSV showed -0.76, -0.79, -0.87, -0.70, -0.56, -0.71 (controls 0 of 18).
The variant GFDLNEYGIS | VIYADGVRTFYIDSVK | GEIAGTFDV showed -0.21, -0.16, -0.29, -0.33, -0.44, -0.17 (controls 1 of 18).

The authors averaged sequences with at least three values out of six and counted those with two or fewer as poor binders.
Values of this round are not directly comparable with the first-round values of the same sequences.
Of ten entries with the parent sequence, four were seen in most replicates (averages 0.34 to 2.37), three in one and three in none, so single entries are noisy.
Background: pairings of all heavy chain designs with three empty control strains gave a value in 1% of cases (median 2.08, 5th percentile 0.84). Values in that range, when seen in few replicates, are hard to tell from nonspecific mating. The control count says in how many pairings with the empty strains this scFv gave a signal.